Earlier results in patent US20250197356A1, “METHOD FOR SYNTHESIZING NUCIFERINE OR DERIVATIVE THEREOF, DERIVATIVE OF NUCIFERINE AND USE THEREOF” (HUAQIAO UNIVERSITY, priority 2022, published 2025).

Conditions: TCMSP database, screening threshold OB ≥30%; cited from earlier work

In the case of `CC[C@H](CC[C@@H](C)[C@H]1CC[C@H]2[C@@H]3CC=C4C[C@@H](O)CC[C@]4(C)[C@H]3CC[C@]12C)C(C)C` [Sitosterol], the “OB/% (oral bioavailability)” value is given as 36.91%.
